Screens as filed in PubChem.
Hits are enriched below; roughly 4.2% of the tested compounds scored in any of these assays.
HDAC3 inh = blocks human histone deacetylase 3; O15379; recombinant HDAC3, fluorogenic peptide/trypsin coupled, fluorescence; inhibition, % at 8.3 µM; actives 0.15% (n = 320,000); AID 2718; in the data active means inhibition above about 26%, passing the limit was not always enough
Yeast UUG start = modulators of start codon recognition fidelity in yeast. S. cerevisiae UUG-firefly luciferase reporter, luminescence/redox ratio. activity score, % at 18.7 µM. 350,000 tested, 0.13% active;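 active = replicate mean at a twofold rise or more, about +100% in these data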;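 note: firefly luciferase made from a UUG start codon reports start codon fidelity; reporter light over untreated wells divided by growth signal over untreated wells; some hits fall short of that in this replicate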
ALR inh = inhibitors of human ALR sulfhydryl oxidase, primary screen, biochemical, H2O2 detection, HRP-luminol luminescence, single point; FAD-linked sulfhydryl oxidase ALR (Homo sapiens), P55789; purified ALR, DTT oxidation; inhibition, % (concentration not given with the values); AID 485317, 2010; actives 3.8% (n = 290,000);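 active means mean and each replicate at 75% or more; inconclusive means only one of the two met; inactive means neither met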;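 further: stock transfer was 7.5 nL into about 7.5 µL; 0% = neutral wells and 100% = wells with inactivated enzyme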
NALP1 inh = blocks the NALP1 inflammasome reconstituted in yeast | inhibition, % at 10 µM | S. cerevisiae NALP1/ASC/caspase-1 growth, X-gal OD620, 72 h | AID 2071 | actives 0.61% (n = 280,000); in the data active means inhibition mostly above about 24%, no sharp cut-off; inactive means mostly below about 32%
MC4R ag barr = agonists of human melanocortin 4 receptor (MC4R) beta-arrestin; P32245; U2OS MC4R beta-arrestin complementation, luminescence; percent of melanotan II response, DMSO zero; activation, % at 8.9 µM; actives 0.98% (n = 360,000); AID 540308;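 active means activation above a per-plate cutoff, the mean activation of sample wells on that plate plus 3 SD, cut at about 8% in these data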
MC4R antagonist = human MC4R antagonism in cAMP assay. P32245. MC4R-expressing cells, MTII-stimulated cAMP, LANCE TR-FRET. inhibition, % at 6.5 µM. actives 0.48% (n = 360,000). AID 540295;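 active means inhibition above its plate's cutoff, the mean of tested wells on that plate plus 3 SD, cut at about 29% in these data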;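 further: 0% = Melanotan II alone and 100% = Melanotan II plus saturating MCL0020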
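System: U2OS-MC4R stable cell line; Technique: Eu-cAMP/anti-cAMP TR-FRET, emission 671 nm; Repeats: single well per compound; Also added: Melanotan II; Dosing: one concentration, 6.5 µM nominal; Schedule: 30-min compound, 1-h challenge, 1-h detection, room temperature.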
An asterisk follows results filed as active; . = no result given.

[1] C[C@@H]1CCCCO[C@H](CN(C)Cc2ccc(Cl)c(Cl)c2)[C@H](C)CN([C@@H](C)CO)C(=O)c2cc(NS(=O)(=O)c3cn(C)cn3)ccc2O1
[2] O=C(O)C[C@@H]1C[C@H]2c3cc(NS(=O)(=O)c4ccccc4)ccc3O[C@H]2[C@H](CO)O1
[3] CCc1cccc(NC(=O)CS(=O)Cc2nc(-c3ccc(C)cc3)oc2C)c1 (stereo not given)
[4] Cc1oc(-c2ccc(Cl)cc2)nc1CS(=O)CC(=O)NCc1ccccn1 (stereo not given)
[5] COc1cccc(S(=O)(=O)N[C@H]2C=C[C@@H](CC(=O)NCc3ccccc3)O[C@H]2CO)c1
[6] CNC(=O)C[C@H]1CC[C@H]2[C@@H](COc3ccc(NC(=O)Nc4ccccc4OC)cc3C(=O)N2C)O1
[7] CS(=O)(=O)N1CCN(c2ccccc2NC(=O)C(c2ccccc2)c2ccccc2)CC1
[8] O=C(Nc1ccccc1O)C(c1ccccc1)c1ccccc1

entry no.	1	2	3	4	5	6	7	8
MC4R ag barr	.	.	6	0	.	.	-3	1
HDAC3 inh	.	.	14	1	.	.	2	5
NALP1 inh	.	.	-11	16	.	.	43*	2
Yeast UUG start	7	2	0	-23	-4	4	-6	-7
MC4R antagonist	.	.	13	17	.	.	-2	-1
ALR inh	.	.	99*	99*	.	.	-5	5

[9] O=C(Nc1ccccc1-c1ccccc1)C(c1ccccc1)c1ccccc1
[10] C[C@@H]1CN([C@H](C)CO)S(=O)(=O)c2ccc(C#Cc3ccncc3)cc2O[C@H]1CN(C)C(=O)C1CCOCC1
[11] CCCNC(=O)N[C@@H]1CC[C@@H](CC(=O)NC2CCC2)O[C@@H]1CO
[12] C[C@@H]1CN([C@H](C)CO)C(=O)Cc2cc(NC(=O)CCN3CCOCC3)ccc2O[C@H]1CN(C)Cc1ccccc1
[13] CCOc1ccc2nc(N3CCCC(C(=O)N4CCN(CC)CC4)C3)sc2c1 (stereo not given)
[14] CCOc1ccc2nc(N3CCCCCC3)sc2c1
[15] C[C@@H]1CN([C@@H](C)CO)C(=O)c2cc(NS(=O)(=O)c3cn(C)cn3)ccc2O[C@@H]1CN(C)S(C)(=O)=O
[16] CC(C)CC#Cc1cnc2c(c1)C(=O)N([C@H](C)CO)C[C@@H](C)[C@@H](CN(C)C(=O)Cc1ccncc1)O2

entry no.	9	10	11	12	13	14	15	16
MC4R ag barr	9.4*	.	.	.	0	0	.	.
HDAC3 inh	3	.	.	.	-2	7	.	.
NALP1 inh	4	.	.	.	34*	0	.	.
Yeast UUG start	-20	3	-8	15	-8	-18	-13	-9
MC4R antagonist	1	.	.	.	9	-1	.	.
ALR inh	0	.	.	.	-2	90*	.	.

[17] CC(=O)NCCn1c(SCc2ccccc2F)nc2ccccc2c1=O
[18] C=CCn1c(SCc2ccccc2F)nc2cc(C(=O)O)ccc2c1=O
[19] C[C@@H]1CN([C@H](C)CO)S(=O)(=O)c2ccc(C#CC3CC3)cc2O[C@@H]1CN(C)C
[20] CN(C)c1ccc(/C=N/NC(=O)C[n+]2ccccc2)cc1
[21] Cc1ccc[n+](CC(=O)Nc2ccc(N(C)C)cc2)c1
[22] CC(=O)c1ccc(NC(=O)C[n+]2cccc(C)c2)cc1
[23] CN(C)c1ccc(NC(=O)C[n+]2ccccc2)cc1
[24] CC(=O)c1ccc(NC(=O)C[n+]2ccc(N(C)C)cc2)cc1

entry no.	17	18	19	20	21	22	23	24
MC4R ag barr	-2	-2	.	-2	-1	-1	-2	0
HDAC3 inh	0	2	.	6	2	3	-3	-3
NALP1 inh	-5	25	.	.	24	8	8	0
Yeast UUG start	-1	2	-7	-17	-9	-9	-13	-9
MC4R antagonist	8	9	.	9	5	8	5	3
ALR inh	-5	98*	.	99*	100*	-7	99*	-16

Profiles from above. Screens in order: MC4R ag barr | HDAC3 inh | NALP1 inh | Yeast UUG start | MC4R antagonist | ALR inh
C=CCn1c(SCc2ccccc2F)nc2cc(C(=O)O)ccc2c1=O in the list: -2 | 2 | 25 | 2 | 9 | 98*
CN(C)c1ccc(NC(=O)C[n+]2ccccc2)cc1 in the list: -2 | -3 | 8 | -13 | 5 | 99*
CN(C)c1ccc(/C=N/NC(=O)C[n+]2ccccc2)cc1 in the list: -2 | 6 | . | -17 | 9 | 99*
CC(=O)c1ccc(NC(=O)C[n+]2ccc(N(C)C)cc2)cc1 in the list: 0 | -3 | 0 | -9 | 3 | -16

Further results follow:
[25] O=C(C[n+]1ccccc1)N/N=C/c1ccc(C(=O)O)cc1
[26] CN(C)c1ccc(NC(=O)Oc2ccccc2)cc1
[27] CC(=O)N(C)C[C@H]1Oc2ncc(-c3ccc(C)cc3)cc2C(=O)N([C@@H](C)CO)C[C@@H]1C
[28] CN(C)CC(=O)N[C@H]1CC[C@@H](CCNS(=O)(=O)c2ccccc2)O[C@@H]1CO
[29] COc1ccc(S(=O)(=O)NCC2CCCN(Cc3cccc(C(C)=O)c3)C2)cc1 (stereo not given)
[30] COc1ccc(S(=O)(=O)NCC2CCCN(Cc3ccccc3C)C2)cc1 (stereo not given)
[31] COc1ccc(S(=O)(=O)NCC2CCCN(Cc3cccnc3)C2)cc1 (stereo not given)
[32] CN(C)CCCNC(=O)C[C@H]1CC[C@@H]2[C@H](COc3ccc(NC(=O)c4ccccc4F)cc3C(=O)N2C)O1

entry no.	25	26	27	28	29	30	31	32
MC4R ag barr	0	-1	.	.	0	-3	-3	.
HDAC3 inh	-2	-5	.	.	0	4	-4	.
NALP1 inh	.	16	.	.	6	10	32*	.
Yeast UUG start	-3	-28	-3	-7	-13	.	.	-8
MC4R antagonist	3	0	.	.	0	4	0	.
ALR inh	10	97*	.	.	76*	-3	-1	.

[33] Nc1cc(-c2ccccc2)ccc1O
[34] CC(=O)Nc1cc(-c2ccccc2)ccc1O
[35] C/C=C/c1cnc2c(c1)C(=O)N([C@H](C)CO)C[C@@H](C)[C@H](CN(C)Cc1ccc(F)cc1)O2
[36] C[C@H](CO)N1C[C@H](C)[C@H](CN(C)S(=O)(=O)c2cccs2)OCCCC[C@H](C)Oc2ccc(NC(=O)Nc3ccccc3)cc2C1=O
[37] C[C@@H]1CN([C@H](C)CO)C(=O)c2cc(-c3ccccc3F)cnc2O[C@@H]1CN(C)C(=O)c1ccccn1
[38] C[C@@H]1CN([C@H](C)CO)S(=O)(=O)c2ccc(C#CCN(C)C)cc2O[C@H]1CN(C)Cc1ccccc1F
[39] C[C@@H]1CN([C@@H](C)CO)C(=O)c2cc(NC(=O)Nc3ccc(C(F)(F)F)cc3)ccc2O[C@@H](C)CCCCO[C@@H]1CN(C)C(=O)CCCN(C)C
[40] O=C(c1cccnc1)N1C[C@@H]2[C@H](c3ccccc31)[C@@H](CO)N2C(=O)C1CCCCC1

entry no.	33	34	35	36	37	38	39	40
MC4R ag barr	-1	-1	.	.	.	.	.	.
HDAC3 inh	-8	-3	.	.	.	.	.	.
NALP1 inh	-1	13	.	.	.	.	.	.
Yeast UUG start	-12	-18	35	-7	8	1	12	-10
MC4R antagonist	0	5	.	.	.	.	.	.
ALR inh	99*	99*	.	.	.	.	.	.

[41] Cc1ccc(S(=O)(=O)N2C(=O)CCC2C(=O)NCc2ccco2)cc1 (stereo not given)
[42] COc1ccc(Cl)cc1NC(=S)NCCc1ccc(F)cc1
[43] COc1ccc(Cl)cc1NCCC(O)c1ccc(F)cc1 (stereo not given)
[44] COc1ccc(NCCC(O)c2ccc(Cl)cc2)cc1 (stereo not given)
[45] C[C@H](CO)N1C[C@H](C)[C@@H](CN(C)Cc2ccc(Cl)c(Cl)c2)Oc2c(NC(=O)c3nc4ccccc4s3)cccc2C1=O
[46] Cc1c(OCC(=O)NC(Cc2ccc(Cl)cc2)C(=O)O)ccc2c3c(c(=O)oc12)CCCC3 (stereo not given)

entry no.	41	42	43	44	45	46
MC4R ag barr	0	1	-3	1	.	2
HDAC3 inh	-6	-5	0	3	.	-3
NALP1 inh	40*	-3	-17	32	.	13
Yeast UUG start	-19	-24	-14	1	1	-8
MC4R antagonist	-1	0	6	4	.	12
ALR inh	-8	-22	99*	99*	.	98*
